# Values of other authors in patent publication US10016389B2, “Method of making liposomes, liposome compositions made by the methods, and methods of using the same” (LivOn Laboratories, priority 2011, dated 2018).
# Settings: doses up to 10,000 mg daily for up to three years
structure (smiles),measurement,value
"O=C1O[C@H]([C@@H](O)CO)C(O)=C1O [vitamin C, L-ascorbic acid]",safety of daily consumption,safe
